Results from publication PMC12464334, “Reprogramming of cancer metabolism via photoresponsive nano-PROTAC enhances pyroptosis-mediated immunotherapy” (Signal Transduction and Targeted Therapy, 2025).

Legend:
[1] = Procedure: The morphology in distilled water was observed via transmission electron microscopy (TEM; Philips). UV‒vis and fluorescence spectra were measured via a UV‒vis spectrometer (Agilent Technologies) and a fluorescence spectrometer (Hitachi), respectively. ROS generation was quantified via a bleaching assay using 1,3-diphenylisobenzofuran (DPBF; Cat. No. 105481; Sigma Aldrich).
[2] = carrier-free
[3] = intravenous, blood fluorescence, n = 5
[4] = orthotopic TNBC mice, i.v. administration
Procedure: BL imaging was conducted every 4 days following the intraperitoneal injection of D-luciferin. The tumor volumes and body weights were measured every 2 days. Mice with tumor volumes exceeding 500 mm^3 were considered deceased.

[5] = intravenous, equivalent to 5 mg/kg VPF, ex vivo NIRF 3 h after administration, n = 3

With VPF-KRRPIYPALAK-lonidamine [NanoTAC] as the substance, how does the hydrodynamic diameter ([1]; DLS, Zetasizer) read?
The hydrodynamic diameter was 73.58 ± 0.72 nm.

What about the zeta potential ([1]; Zetasizer, distilled water) of the same substance?
The zeta potential was 13.14 ± 1.59 mV.

What about the “changes in average size or polydispersity index in mouse serum” value ([1]; over 4 days, DLS, n = 5) of the same substance?
The value was “no significant changes in average size or polydispersity index”.

And the “drug-loading capacity, total” value [2]?
Its value is 78.55%.

What about the “drug-loading, PROTAC” value [2] of the same substance?
The value was 49.14%.

What about the “drug-loading, photosensitizer” value [2] of the same substance?
Its value is 29.41%.

And the “time for which detectable amounts remain in the blood” value [3]?
Its value is “up to 48 h”.

What about the “damage in normal tissues (H&E of major organs)” value [4] of the same substance?
The value was “no damage was observed in normal tissues”.

What about the “tumor accumulation, fold of NanoTAC over VPF” value [5] of the same substance?
Its value is 3.57 fold.

What about the “cytotoxicity with laser irradiation” value (4T1 cells; +L (40 mW, 500 s), CCK-8, n = 5, compared with NanoTAC (−L) and VPF (+L)) of the same substance?
Its value is “substantially greater cytotoxicity”.

And the cytotoxicity without photoirradiation (4T1 cells; −L, CCK-8, n = 5)?
The cytotoxicity without photoirradiation was “minimal TNBC cell death”.
